Measured affinities in a library of Ab-95 light chain variants

Source: Engelhart et al. 2022 (doi:10.1038/s41597-022-01779-4), MIT Lincoln Laboratory and A-Alpha Bio; data file from the FLAb repository.

Antigen: PDVDLGDISGINAS, a 14-residue peptide of the SARS-CoV-2 spike HR2 region.

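The starting antibody came from a phage panning campaign against this peptide. AAYL52 was designed without a model: most single CDR substitutions and a random sample of double and triple ones. Affinity was read by AlphaSeq, a pooled yeast mating assay with surface-displayed partners. The frequency of each diploid, read from paired DNA barcodes, reflects how well the two displayed proteins bind. Each replicate has its own calibration line, from reference interactions of the BCL2 family. Each pool was mated in three replicate cultures.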

The variants keep the heavy chain, the linker and the frameworks of Ab-95 (scFv order VH, a (GGGGS)3 linker, VL).
VH: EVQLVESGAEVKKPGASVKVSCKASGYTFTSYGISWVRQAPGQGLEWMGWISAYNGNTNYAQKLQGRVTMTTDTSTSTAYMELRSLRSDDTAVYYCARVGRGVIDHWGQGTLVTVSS
VL: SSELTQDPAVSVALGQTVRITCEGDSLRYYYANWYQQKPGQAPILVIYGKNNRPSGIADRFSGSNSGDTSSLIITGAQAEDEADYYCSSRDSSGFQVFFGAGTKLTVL

Each variant is given by its three light chain CDRs, as the data file delimits them; those of the parent are EGDSLRYYYAN, GKNNRPS, SSRDSSGFQVF.
Values are log10 of the apparent Kd in nM; lower means stronger binding.
Averages over replicates are reported, and they cover detected replicates only.
A pair that was not seen in any replicate is written "nd"; this usually means weak binding, but a binder can also be missed.
Nonspecific signal, from three strains lacking the peptide, appeared in 28% of pairings of library AAYL52, centred on 3.91 (5% of these signals below 2.90); values are not corrected for it. For each scFv, signals with the empty controls are counted beside the result.
Parent in this assay: reference entry 2.31, copy in this library 2.25.

1.63 (3 of 3 replicates; controls 3 of 9) for EGDSIRYYYAN, GKNNRLQ, SSRDSSGFQVF.
2.04 (3 of 3 replicates; controls 3 of 9) for EGDSARYYYAN, GKNNRPS, DARDSSGFQVF.
3.02 (3 of 3 replicates; controls 6 of 9) for EKDSDRYFYAN, GKNNRPS, SSRDSSGFQVF.
2.30 (3 of 3 replicates; controls 3 of 9) for EGDSLRYQYYN, GKNNRPS, SSRDSSGFNVF.
1.18 (3 of 3 replicates; controls 5 of 9) for QGDSLRYYQAN, GKNNRFS, SSRDSSGFQVF.
4.29 (2 of 3 replicates; controls 3 of 9) for PGDSLRYYYAN, GKNNRHS, SSRDSSGFFVF.
4.00 (1 of 3 replicates; controls 4 of 9) for EGDSLRYYYRN, GKNNRPT, SSRDSSGFQGF.
2.51 (3 of 3 replicates; controls 2 of 9) for CGDSLERYYAN, GKNNRPS, SSRDSSGFQVF.
3.61 (2 of 3 replicates; controls 2 of 9) for EGDSLTYYYAN, GKNNRCS, SSRDNSGFQVF.
3.42 (2 of 3 replicates; controls 5 of 9) for EGDSLRYYYAN, MKNNRPS, SSRFSSGDQVF.
2.58 (3 of 3 replicates; controls 5 of 9) for EGDSLRYYYAN, GKNNRPS, SSRFSSGFYVF.
3.93 (2 of 3 replicates; controls 2 of 9) for EGDSLRYCYAN, MKNNRPS, WSRDSSGFQVF.
nd (0 of 3 replicates; controls 2 of 9) for EGDMLRYYYAN, GKNNRPS, SSRFSSGFQVI.
3.76 (2 of 3 replicates; controls 2 of 9) for EGDYLRYYYAN, GLNNRPS, SSRDRSGFQVF.
2.95 (3 of 3 replicates; controls 4 of 9) for EGGSLRYYYAN, GKNNRPS, SSRDMSGFWVF.
3.13 (1 of 3 replicates; controls 1 of 9) for TGDSLRYYYAN, GWNNRPS, SQRDSSGFQVF.
nd (0 of 3 replicates; controls 0 of 9) for EGDSLRYYYAN, GKMFRPS, SNRDSSGFQVF.
3.07 (3 of 3 replicates; controls 2 of 9) for EGDNLRYYCAN, GKNNRPS, SSRDWSGFQVF.
4.18 (2 of 3 replicates; controls 4 of 9) for EGDSLRYYVAN, GKCNRPS, SSRDSSGFQSF.
3.37 (3 of 3 replicates; controls 5 of 9) for EGISLRVYYAN, GKNGRPS, SSRDSSGFQVF.
1.12 (3 of 3 replicates; controls 4 of 9) for YGDSLRGYYAN, GKNNRPS, SSRDSSGFQVF.
5.94 (1 of 3 replicates; controls 3 of 9) for EGDSLRYYYAN, GKNPTPS, SSRDSEGFQVF.
4.24 (2 of 3 replicates; controls 0 of 9) for EGDSLRYDYAN, GKNNRPS, SSSDSSIFQVF.
4.61 (3 of 3 replicates; controls 6 of 9) for EGCSLRYYYAN, WKNNRPS, SSRRSSGFQVF.
4.34 (1 of 3 replicates; controls 2 of 9) for EGDSWRYYYAN, GKNNRPS, SSRDSSTFEVF.
4.33 (2 of 3 replicates; controls 3 of 9) for EGDSLRYYYAN, GKNNRPS, FSRDSSGFWRF.
2.46 (3 of 3 replicates; controls 2 of 9) for EGDSLRYYYAN, GKNMRPS, SSIDSSGFQVA.
4.42 (2 of 3 replicates; controls 2 of 9) for EGDSLRYYYAN, GINNRPS, SSRDSSGFKNF.
4.56 (2 of 3 replicates; controls 6 of 9) for EGDSLRYYYHN, GKNNRPS, ESRDSSGFRVF.
2.12 (3 of 3 replicates; controls 4 of 9) for EGDSLRYYYAN, GKNERAS, SSRDSRGFQVF.
1.99 (3 of 3 replicates; controls 5 of 9) for EGDSLRYYGAN, GKNNRPS, SSRDSSGPQVF.
2.02 (3 of 3 replicates; controls 1 of 9) for EGDSLQYRYAN, GKNNRPS, SSRDSSGFQVK.
3.18 (3 of 3 replicates; controls 2 of 9) for EGDSLRYYYAN, GKNNRPS, ESRHSSGFQVQ.
nd (0 of 3 replicates; controls 0 of 9) for EGDSLRYYYAN, KKNNRPS, SSRDSSGFQVH.
3.75 (3 of 3 replicates; controls 3 of 9) for EGDSLRYYYAN, GKNGRPS, SSRDSSWLQVF.
3.91 (1 of 3 replicates; controls 3 of 9) for EDDSLRPYYAN, GKNNRPS, SSRDSPGFQVF.
3.84 (2 of 3 replicates; controls 3 of 9) for EGDFLRYYYAN, GKNNRPS, SSRDASGFQVF.
nd (0 of 3 replicates; controls 1 of 9) for EGDSLRYYYAN, GKNNRPV, HSRDSSGFQVF.
4.56 (2 of 3 replicates; controls 0 of 9) for EGDSLRYYYAN, GKNNRPM, SDRDSSGFQQF.
1.88 (3 of 3 replicates; controls 4 of 9) for EGDSLRYAYAN, GKNNRPS, NSKDSSGFQVF.
4.20 (3 of 3 replicates; controls 2 of 9) for EMDSLRYYYAN, GKNNRPS, SSRDSSGFTVY.
3.44 (3 of 3 replicates; controls 1 of 9) for EGDSLRYYYAN, GLNNRPS, SSRDSSIFQVI.
3.59 (2 of 3 replicates; controls 4 of 9) for NGVLLRYYYAN, GKNNRPS, SSRDSSGFQVF.
nd (0 of 3 replicates; controls 1 of 9) for EFDSLRYYYAN, GKNNRPS, SSRDGSGFQVF.
nd (0 of 3 replicates; controls 2 of 9) for EGDSHRYYYAN, GKINRPS, SSRDSSGFQVF.
2.76 (3 of 3 replicates; controls 1 of 9) for EGDSLRYYFAN, GKNNRPS, SSRDAPGFQVF.
nd (0 of 3 replicates; controls 0 of 9) for EGDSLRYYYAN, GKNNRPS, SSRDLSYFQVM.
5.66 (1 of 3 replicates; controls 5 of 9) for EGDSLRYYYSN, GKNNRPS, SSQDSKGFQVF.
4.05 (2 of 3 replicates; controls 0 of 9) for EGDLLRYYYEN, GKNNRPS, SSRDSSGFQWF.
3.71 (1 of 3 replicates; controls 2 of 9) for EGDSIRYMYAN, GKNNRPS, SSRYSSGFQVF.
4.62 (1 of 3 replicates; controls 1 of 9) for EGDSTRYYYAN, GKNNNPS, SSRDESGFQVF.
2.73 (3 of 3 replicates; controls 6 of 9) for EGDSLRYYYAN, GKNNRPS, SSRDSYGFQGF.

Picked from the list: the 3 lowest averages where every replicate gave a value.

CDR-L1,CDR-L2,CDR-L3,mean log10 Kd (nM),detected,signal with controls
YGDSLRGYYAN,GKNNRPS,SSRDSSGFQVF,1.12,3 of 3,4 of 9
QGDSLRYYQAN,GKNNRFS,SSRDSSGFQVF,1.18,3 of 3,5 of 9
EGDSIRYYYAN,GKNNRLQ,SSRDSSGFQVF,1.63,3 of 3,3 of 9